According to ChEMBL document CHEMBL1125327, “Conformationally restricted deltorphin analogues” (J Med Chem, 1992):
Several values for one entry are separate records, joined by “and”; a condition that tells them apart may be missing. Equal values may be shown once.

Chains of the proteins cited; added tags and fusions are not shown.
UniProt P33535, whole entry, looked up: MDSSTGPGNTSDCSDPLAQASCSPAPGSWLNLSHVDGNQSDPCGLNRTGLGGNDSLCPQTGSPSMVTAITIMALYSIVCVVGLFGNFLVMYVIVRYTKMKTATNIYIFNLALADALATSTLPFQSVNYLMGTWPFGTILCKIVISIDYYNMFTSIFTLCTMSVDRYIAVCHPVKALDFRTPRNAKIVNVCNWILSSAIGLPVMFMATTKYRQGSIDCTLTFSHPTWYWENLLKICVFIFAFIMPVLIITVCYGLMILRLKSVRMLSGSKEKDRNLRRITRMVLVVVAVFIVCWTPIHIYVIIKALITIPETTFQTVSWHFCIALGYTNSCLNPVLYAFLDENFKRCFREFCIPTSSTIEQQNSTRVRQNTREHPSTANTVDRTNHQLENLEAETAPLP
UniProt P33533, whole entry, looked up: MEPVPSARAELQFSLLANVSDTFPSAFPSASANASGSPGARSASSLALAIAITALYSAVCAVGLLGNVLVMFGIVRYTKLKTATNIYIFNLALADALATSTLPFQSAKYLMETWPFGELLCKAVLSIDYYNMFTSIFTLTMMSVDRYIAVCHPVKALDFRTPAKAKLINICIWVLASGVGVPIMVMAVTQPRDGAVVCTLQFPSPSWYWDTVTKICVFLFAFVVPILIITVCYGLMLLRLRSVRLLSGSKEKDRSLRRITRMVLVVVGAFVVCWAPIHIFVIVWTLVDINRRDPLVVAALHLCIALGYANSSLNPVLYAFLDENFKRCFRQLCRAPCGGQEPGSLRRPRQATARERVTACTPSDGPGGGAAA

Legend:
[1] = target: Mu-type opioid receptor (Rattus norvegicus) (UniProt P33535); experiment: Potency to inhibit 3H ]DAMGO binding to mu receptor relative to [Leu]enkephalin
[2] = target: Delta-type opioid receptor (Rattus norvegicus) (UniProt P33533); experiment: Potency to inhibit [3H]- ]DSLET binding to delta receptor relative to [Leu]enkephalin
[3] = target: Delta-type opioid receptor (Rattus norvegicus) (UniProt P33533); experiment: Potency to inhibit [3H]- ]DSLET binding to Opioid receptor mu 1 relative to [Leu]enkephalin

Structure (SMILES)	Relative potency [1]	Relative potency [2]	Relative potency [3]
CC(C)[C@H](NC(=O)[C@@H]1CCC(=O)NCCCC[C@@H](NC(=O)[C@@H](N)Cc2ccc(O)cc2)C(=O)N[C@@H](Cc2ccccc2)C(=O)N1)C(=O)N[C@H](C(=O)NCC(N)=O)C(C)C	0.539	0.691	
CCCC[C@H](NC(=O)[C@H](CC(C)C)NC(=O)[C@H](Cc1c[nH]cn1)NC(=O)[C@H](Cc1ccccc1)NC(=O)[C@@H](CCCC)NC(=O)[C@@H](N)Cc1ccc(O)cc1)C(=O)N[C@@H](CC(=O)O)C(N)=O	0.0806	3.8	
CC(C)[C@@H]1NC(=O)[C@@H](CC(=O)O)NC(=O)[C@H](Cc2ccccc2)NC(=O)[C@H](NC(=O)[C@@H](N)Cc2ccc(O)cc2)CCCCNC(=O)CC[C@H](C(N)=O)NC(=O)[C@@H](C(C)C)NC1=O	0.0106	0.0102	
CC(C)[C@@H]1NC(=O)[C@@H](NC(=O)[C@H](Cc2ccccc2)NC(=O)[C@@H](C)NC(=O)[C@@H](N)Cc2ccc(O)cc2)CC(=O)NCCC[C@H](C(N)=O)NC(=O)[C@@H](C(C)C)NC1=O	0.0279	0.0045	
CC(C)[C@H](NC(=O)[C@H](CC(=O)O)NC(=O)C1(NC(=O)[C@@H](C)NC(=O)[C@@H](N)Cc2ccc(O)cc2)Cc2ccccc2C1)C(=O)N[C@H](C(=O)NCC(N)=O)C(C)C		0.51	
CC(C)[C@@H]1NC(=O)[C@@H](C(C)C)NC(=O)[C@H](NC(=O)[C@H](Cc2ccccc2)NC(=O)CNC(=O)[C@@H](N)Cc2ccc(O)cc2)CCC(=O)NCCCC[C@@H](C(N)=O)NC1=O	0.00987	0.00349	
CSCC[C@H](NC(=O)[C@H](CC(C)C)NC(=O)[C@H](Cc1c[nH]cn1)NC(=O)[C@H](Cc1ccccc1)NC(=O)[C@@H](CCSC)NC(=O)[C@@H](N)Cc1ccc(O)cc1)C(=O)N[C@@H](CC(=O)O)C(N)=O	0.0659 and 0.0227		
CC(C)[C@H](NC(=O)[C@H](CC(=O)O)NC(=O)[C@H](Cc1ccccc1)NC(=O)[C@@H]1Cc2ccccc2CN1C(=O)[C@@H](N)Cc1ccc(O)cc1)C(=O)N[C@H](C(=O)NCC(N)=O)C(C)C			0.39
NC(=O)[C@@H]1CC(=O)NCCC[C@@H](NC(=O)[C@@H](N)Cc2ccc(O)cc2)C(=O)N[C@@H](Cc2ccccc2)C(=O)N1	0.907	0.00114	
